Biological target: T1, human IL-1 type 1 receptor (IL-1R1) (human, UniProt P14778 18-336, limits assumed)
T1 construct: SPR reagent; also called IL-1RI; interleukin-1 type I receptor
T1 sequence (looked up): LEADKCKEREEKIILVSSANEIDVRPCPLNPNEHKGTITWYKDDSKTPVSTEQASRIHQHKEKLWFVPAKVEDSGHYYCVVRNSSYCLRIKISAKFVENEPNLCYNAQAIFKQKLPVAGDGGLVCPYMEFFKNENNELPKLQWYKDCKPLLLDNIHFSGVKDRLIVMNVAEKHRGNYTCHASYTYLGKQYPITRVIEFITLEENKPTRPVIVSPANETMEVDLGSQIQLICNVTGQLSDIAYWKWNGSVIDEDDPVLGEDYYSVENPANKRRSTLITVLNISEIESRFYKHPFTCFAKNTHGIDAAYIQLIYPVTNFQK
Assay: surface plasmon resonance

B1: IL-1Ra (comparator test ligand of Table 24, 'an IL-1Ra') (ligand)
chain: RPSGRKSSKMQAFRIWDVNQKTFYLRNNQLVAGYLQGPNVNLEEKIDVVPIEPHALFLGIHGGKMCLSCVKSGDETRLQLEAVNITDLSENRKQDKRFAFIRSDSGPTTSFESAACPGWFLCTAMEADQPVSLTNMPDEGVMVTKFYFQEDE
Kd: 50 pM | koff: 3.91e-05 s⁻¹ | kon: 854000 M⁻¹ s⁻¹
